Screening data (PubChem)
Compounds with a hit are over-represented: about 0.91% of the library has one in this group of screens.
hiPSC survival: increases survival of single human iPS cells | AID 602274 | survival enhancement, % at 20 µM | 0.044% of 360,000 active | hiPSC single-cell survival, ATPlite luminescence; 100% = ROCK inhibitor wells, 0% = DMSO; in the data active means survival enhancement above about 18%;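 further: cells exposed to compounds for 16 hours before the ATP read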
FN deposit inh: fibronectin deposition inhibition; AH1F fibroblasts, Alexa488-fibronectin deposition fluorescence, overnight; inhibition, % at 12.6 µM; 0.086% of 350,000 active; AID 743247;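 active means mean inhibition across replicates of 30% or more, regardless of how many single replicates reach that level; inconclusive means mean under 30% yet at least half of replicates reach 30%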;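 further: positive control wells lacked labelled fibronectin entirely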
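Material: AH1F fibroblast monolayer depositing Alexa488-labelled fibronectin into matrix / Amount: 10000 AH1F cells per well / Signal: fluorescence 485/525 nm / Medium: DMEM, 2% serum / Compound: single dose, pinned / Incubation: 1 h cell adhesion before compound, then overnight fibronectin incubation / Reagent: Alexa488-FN, 24 nM final / Read-out: inhibition of fibronectin deposition signal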
Yeast UUG start: alters start codon recognition fidelity in yeast. S. cerevisiae UUG-firefly luciferase reporter, luminescence/redox ratio. 350,000 tested, 0.13% active. activity score, % at 18.7 µM. AID 602363;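 active means replicate mean at a twofold rise or more, about +100% in these data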;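 further: firefly luciferase made from a UUG start codon reports start codon fidelity; reporter light over untreated wells divided by growth signal over untreated wells; some hits fall short of that in this replicate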
PGC1a acetyl inh: PGC1a acetylation modulation, inhibitor mode | U2OS PGC1a acetylation, AlphaScreen anti-acetyl-lysine; with virally co-expressed GCN5 acetyltransferase | inhibition, % at 15.6 µM | 0.17% of 350,000 active;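 active means every replicate shows inhibition of at least 40%; inconclusive means mean inhibition at least 40% but some replicate below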;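 further: 0% = neutral control wells and 100% = positive control wells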
C2C12 statin: suppressors of simvastatin-induced myotoxicity in C2C12 myotubes | ATP luminescence, 48 h; scaled: DMSO 0, geranylgeraniol control 100 | rescue of ATP level, % at 7.49 µM | 0.78% of 330,000 active;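 active means mean ATP rescue above about 67%, or every replicate alone reaching that limit, limit read from the data, passing the limit was not always enough; inconclusive means no clear call, values can overlap the other calls; inactive means mean under the limit and some replicate under it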;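 further: myotubes were challenged with 10 µM simvastatin during compound exposure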
Starred values were filed as active, the others as inactive; u = inconclusive; x = no result given.

| No. | Compound | hiPSC survival | FN deposit inh | Yeast UUG start | PGC1a acetyl inh | C2C12 statin |
| --- | --- | --- | --- | --- | --- | --- |
| 1 | CCC(C)Sc1nc2c(c(=O)[nH]c(=O)n2C)n1Cc1ccc(Cl)cc1 (stereo unspecified) | -3.0 | x | -5.3 | 21.5 | 130.2* |
| 2 | COc1ccc2c(c1)c(C(=O)OCCN(C)C)c(C)n2C | 9.8 | 5.8 | -17.1 | 8.5 | 104.6* |
| 3 | COCCOC(=O)c1c(C)n(C)c2ccc(OC(=O)c3c(OC)cccc3OC)cc12 | 0.1 | 3.4 | -0.6 | 3.0 | -15.8 |
| 4 | C[C@H](CO)N1C[C@H](C)[C@H](CN(C)C(=O)Nc2ccccc2)Oc2c(NC(=O)C3CCCCC3)cccc2C1=O | x | x | 3.1 | -0.4 | -36.5 |
| 5 | Cc1cccc(NC(=O)c2cc(Cl)nc3ccccc23)c1 | -2.0 | 2.6 | -25.8 | 1.3 | 93.0* |
| 6 | O=C(COC(=O)Cc1ccccc1F)NCc1ccc(Cl)cc1 | -1.0 | -3.1 | 8.7 | -2.0 | 100.4* |
| 7 | C/C=C/c1ccc([C@@H]2[C@@H](CO)N(C(=O)C3CC3)[C@H]2CN(C)C(=O)CN(C)C)cc1 | x | 7.1 | 8.2 | -8.5 | -15.0 |
| 8 | O=C(C[C@@H]1CC[C@@H]2[C@H](COC[C@@H](O)CN2CC2CC2)O1)NCc1ccc(Cl)cc1 | x | -2.9 | x | 3.8 | 6.3 |
| 9 | O=C(NC1CCCCC1)C1CCN(C(=O)NCc2ccccc2)CC1 | 2.8 | x | -27.5 | -5.1 | 103.4* |
| 10 | COc1ccc(Br)cc1/C=N/NC(=O)c1ccco1 | 0.7 | -2.9 | x | -5.3 | -4.1 |
| 11 | CC(C)(C)c1ccc(OCC(=O)N/N=C/c2cc(Br)ccc2OC(=O)c2ccco2)cc1 | -1.6 | x | -9.1 | 11.2 | 135.3* |
| 12 | COc1ccc(NS(=O)(=O)c2ccc(SC)cc2)cc1 | 0.2 | x | -5.6 | -1.2 | 7.1 |
| 13 | CSc1ccc(S(=O)(=O)Nc2ccc(F)cc2)cc1 | 2.6 | x | x | -8.2 | 93.4* |
| 14 | C[C@H]1CN([C@@H](C)CO)C(=O)c2cccc(NC(=O)C3CCCCC3)c2O[C@@H]1CN(C)S(=O)(=O)c1cn(C)cn1 | x | x | x | 1.7 | 8.5 |
| 15 | CCN(CC)C(=O)c1ccc(NS(=O)(=O)c2ccccc2)cc1 | -2.3 | 11.7 | 2.1 | 2.3 | 103.3* |
| 16 | CO/N=C/c1ccc(Sc2ccccc2)c([N+](=O)[O-])c1 | -1.8 | x | -7.3 | x | 1.8 |
| 17 | CO/N=C/c1ccc(Sc2ccccc2N)c([N+](=O)[O-])c1 | 0.0 | x | -12.4 | -3.5 | 127.9* |
| 18 | O=[N+]([O-])c1cc(/C=N/O)ccc1SCc1ccccc1 | 2.0 | 8.2 | -20.4 | x | 2.4 |
| 19 | O=[N+]([O-])c1cc(/C=N/O)ccc1Sc1ccccc1 | 5.3 | x | -4.1 | -9.7 | 171.1* |
| 20 | COc1ccc(NC(=O)N(C)C[C@@H]2Oc3ccc(NC(=O)Nc4c(C)noc4C)cc3CC(=O)N([C@H](C)CO)C[C@H]2C)cc1 | x | -4.2 | -7.9 | 5.5 | 15.2 |
| 21 | COC(=O)C1CCCN1C(=O)C1CCCN1C(=O)CNC(=O)OCc1ccccc1 (stereo unspecified) | -0.4 | x | 3.3 | -0.7 | 81.9* |
| 22 | COC(=O)CNC(=O)C1CCCN1C(=O)CNC(=O)OCc1ccccc1 (stereo unspecified) | -0.6 | -3.6 | x | x | x |
| 23 | CC(=O)N1CCN(C(=O)c2ccc(Oc3ccccc3)cc2)CC1 | 0.6 | -2.8 | 2.4 | -0.1 | 4.1 |
| 24 | O=C(c1ccccc1)N1CCN(C(=O)c2ccc(OC(F)(F)F)cc2)CC1 | -1.7 | x | 2.2 | -4.3 | 97.8* |
| 25 | O=C(C1CCOCC1)N1C[C@@H]2[C@H](c3ccccc31)[C@H](CO)N2Cc1ccc(Cl)cc1 | x | x | 2.6 | 4.0 | -9.8 |
| 26 | CCCCCCNC(=O)O[C@@]12CN(S(=O)(=O)c3ccc(C)cc3)C[C@]1(O)Cn1c(=O)n(CCCCCC)c(=O)n1C2 | 1.6 | 13.6 | 0.4 | 68.9* | -3.1 |
| 27 | Cc1cc(C)cc(N(C(C)C(=O)NCCC2=CCCCC2)S(C)(=O)=O)c1 (stereo unspecified) | -1.4 | x | 0.2 | -6.8 | 93.2* |
| 28 | Cn1cnc(S(=O)(=O)N[C@H]2C=C[C@H](CC(=O)Nc3ccc(-c4ccccc4)cc3)O[C@H]2CO)c1 | x | 2.7 | -2.5 | -1.9 | -2.8 |
| 29 | OC[C@@H]1[C@H](c2ccc(C#CC3CCCC3)cc2)[C@H]2CN(CCC(F)(F)F)CCCCN12 | x | x | 0.6 | 80.5* | -95.8 |
| 30 | CC(C)(C)C(=O)N1CCN(c2ccc(NC(=O)c3ccc([N+](=O)[O-])o3)cc2)CC1 | -0.4 | 11.0 | -7.1 | x | 133.2* |
| 31 | O=C(Nc1ccc(N2CCCCC2)cc1)c1ccc([N+](=O)[O-])o1 | -0.6 | 3.2 | -26.2 | x | 60.7 |
| 32 | CS(=O)(=O)N1CCN(c2ccc(NC(=O)c3ccc([N+](=O)[O-])o3)cc2)CC1 | -4.5 | 36.0* | -17.1 | x | 35.3 |
| 33 | CC1CCN(c2ccc(NC(=O)c3ccc([N+](=O)[O-])o3)cc2)CC1 | -0.6 | 18.7 | -8.4 | 9.4 | 83.4* |
| 34 | O=C(Nc1cccc(Cl)c1N1CCOCC1)c1ccc([N+](=O)[O-])o1 | 1.1 | -1.4 | -8.9 | -9.7 | 97.3* |
| 35 | CO[C@@H]1CN(C)C(=O)c2cc(NC(C)=O)ccc2OC[C@@H](C)N(CC2CC2)C[C@H]1C | x | 11.8 | -5.2 | 8.1 | -0.6 |
| 36 | COc1ccccc1NC(=O)N1CC(=O)N2[C@H](C1)[C@H](c1ccc(C#Cc3ccc(F)cc3)cc1)[C@@H]2CO | x | x | x | 2.2 | x |
| 37 | CCCNC(=O)Nc1ccc2c(c1)OC[C@@H](C)N(Cc1cccnc1)C[C@@H](C)[C@H](OC)CN(C)C2=O | x | -9.7 | x | -7.9 | 40.9 |
| 38 | C[C@@H]1CN([C@@H](C)CO)C(=O)Cc2cc(NC(=O)Nc3ccc(F)cc3)ccc2O[C@@H]1CN(C)S(=O)(=O)c1cn(C)cn1 | x | x | x | 3.4 | 10.3 |
| 39 | O=C1C(Cl)=C(NCCc2ccccc2)C(=O)c2ccccc21 | 0.2 | 22.4 | -20.6 | 4.0 | -92.6 |
| 40 | CC(=O)N(Cc1ccc(F)cc1)C1=C(NCCc2ccccc2)C(=O)c2ccccc2C1=O | -6.6 | 41.9* | -9.6 | u | -129.6 |
| 41 | COc1cc(NC(=O)[C@@H]2CCCN2S(=O)(=O)c2cccc3cccnc23)cc(OC)c1OC | 2.2 | 0.2 | -14.9 | -0.1 | 87.1* |
| 42 | CCOC(=O)C1CCCN(C(=O)c2cc3c(-c4cccc(OC)c4)nn(C)c3s2)C1 (stereo unspecified) | 5.1 | x | -2.0 | -3.4 | 95.7* |
| 43 | COc1ccc(Nc2ncnc3c2cnn3Cc2ccc(C)cc2)cc1 | -1.3 | 9.7 | -10.5 | 2.8 | 67.7* |
| 44 | c1ccc(Cn2ncc3c(Nc4ccccc4)ncnc32)cc1 | 0.1 | -3.9 | -4.8 | x | 5.9 |
| 45 | COC(=O)C1=C(C)NC(=O)CC1c1cc(Br)ccc1F (stereo unspecified) | -1.8 | x | -28.7 | -1.3 | 111.2* |

Pulled by structure from the list above (four):
| No. | Compound | hiPSC survival | FN deposit inh | Yeast UUG start | PGC1a acetyl inh | C2C12 statin |
| --- | --- | --- | --- | --- | --- | --- |
| 36 | COc1ccccc1NC(=O)N1CC(=O)N2[C@H](C1)[C@H](c1ccc(C#Cc3ccc(F)cc3)cc1)[C@@H]2CO | x | x | x | 2.2 | x |
| 45 | COC(=O)C1=C(C)NC(=O)CC1c1cc(Br)ccc1F (stereo unspecified) | -1.8 | x | -28.7 | -1.3 | 111.2* |
| 32 | CS(=O)(=O)N1CCN(c2ccc(NC(=O)c3ccc([N+](=O)[O-])o3)cc2)CC1 | -4.5 | 36.0* | -17.1 | x | 35.3 |
| 39 | O=C1C(Cl)=C(NCCc2ccccc2)C(=O)c2ccccc21 | 0.2 | 22.4 | -20.6 | 4.0 | -92.6 |

Following part
(46) Nc1nc(CSc2nnnn2-c2ccccc2)nc(N2CCCc3ccccc32)n1
(47) C[C@H](CO)N1C[C@H](C)[C@@H](CN(C)C)Oc2ccc(NC(=O)NC3CCCCC3)cc2CC1=O
(48) C=CCOC(=O)c1ccc(-n2cncn2)nc1
(49) C[C@@H]1CN([C@H](C)CO)C(=O)c2cc(NS(=O)(=O)c3cn(C)cn3)ccc2O[C@@H]1CN(C)S(=O)(=O)c1cn(C)cn1
(50) O=C(O)C1C2CC3C(OC(=O)C31)C2Cl (stereo unspecified)

assay / entry	46	47	48	49	50
hiPSC survival	7.3	x	3.6	x	-0.8
FN deposit inh	x	11.1	-5.6	x	-6.3
Yeast UUG start	-24.5	-6.7	-21.8	x	x
PGC1a acetyl inh	-5.2	-16.4	-3.7	0.3	-14.6
C2C12 statin	115.1*	4.4	133.8*	-21.2	-4.8
